This passage reports activity change, negative = inhibition results from PubChem BioAssay AID2551 (National Center for Advancing Translational Sciences (NCATS), 2010).

Amino acid sequences for entries named in this document (tags omitted).
UniProt P51450, whole entry: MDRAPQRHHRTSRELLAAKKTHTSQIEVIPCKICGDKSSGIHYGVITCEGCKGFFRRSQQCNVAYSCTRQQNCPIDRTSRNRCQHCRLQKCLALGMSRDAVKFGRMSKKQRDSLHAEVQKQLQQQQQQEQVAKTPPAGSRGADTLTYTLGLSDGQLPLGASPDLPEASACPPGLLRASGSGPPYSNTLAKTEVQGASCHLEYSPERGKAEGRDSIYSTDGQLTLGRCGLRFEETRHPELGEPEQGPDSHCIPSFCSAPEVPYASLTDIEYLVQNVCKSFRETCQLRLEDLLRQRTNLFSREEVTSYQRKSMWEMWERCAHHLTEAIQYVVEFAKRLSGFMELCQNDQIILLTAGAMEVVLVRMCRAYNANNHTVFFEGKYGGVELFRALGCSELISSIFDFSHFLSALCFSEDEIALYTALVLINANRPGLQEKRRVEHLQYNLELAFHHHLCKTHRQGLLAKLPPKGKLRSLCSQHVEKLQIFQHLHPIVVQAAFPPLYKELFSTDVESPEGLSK

The entries are a selection whose mix differs from that of the whole data set. Records with an inconclusive call do not appear. Activity calls are given as the source filed them. The call rests on the fitted dose curve; in most records, active means well fitted inhibition curve with a large enough effect; inconclusive means small, poorly fitted or top-dose-only effect, or effect the other way; inactive means no such curve, though single readings can be large or run the other way.
On the % scale 0 is the no-effect control and ±100 the full control effect.

The target of this experiment is Nuclear receptor ROR-gamma (Mus musculus) (UniProt P51450). In words: qHTS for inhibitors of ROR gamma transcriptional activity. Further: nearly all actives have a fitted effect of over 60% in size. The conditions noted are these: Drosophila S2 Gal4-RORgamma UAS-luciferase reporter, 20 h; at 53.6 µM (top of the series).
On to `O=[N+]([O-])C(Cl)(Cl)Cl`, for which the activity change, negative = inhibition was inactive: -0.161%.
On to `CCC(=O)N(c1ccccc1)C1CCN(CCc2ccccc2)CC1`, for which the activity change, negative = inhibition is inactive: -18.2%.
